Measured values taken from patent US10927076B2, “HSP90B N-terminal isoform-selective inhibitors” (priority 2017, dated 2021).

Chains of the proteins cited; added tags and fusions are not shown.
UniProt P08238, whole entry: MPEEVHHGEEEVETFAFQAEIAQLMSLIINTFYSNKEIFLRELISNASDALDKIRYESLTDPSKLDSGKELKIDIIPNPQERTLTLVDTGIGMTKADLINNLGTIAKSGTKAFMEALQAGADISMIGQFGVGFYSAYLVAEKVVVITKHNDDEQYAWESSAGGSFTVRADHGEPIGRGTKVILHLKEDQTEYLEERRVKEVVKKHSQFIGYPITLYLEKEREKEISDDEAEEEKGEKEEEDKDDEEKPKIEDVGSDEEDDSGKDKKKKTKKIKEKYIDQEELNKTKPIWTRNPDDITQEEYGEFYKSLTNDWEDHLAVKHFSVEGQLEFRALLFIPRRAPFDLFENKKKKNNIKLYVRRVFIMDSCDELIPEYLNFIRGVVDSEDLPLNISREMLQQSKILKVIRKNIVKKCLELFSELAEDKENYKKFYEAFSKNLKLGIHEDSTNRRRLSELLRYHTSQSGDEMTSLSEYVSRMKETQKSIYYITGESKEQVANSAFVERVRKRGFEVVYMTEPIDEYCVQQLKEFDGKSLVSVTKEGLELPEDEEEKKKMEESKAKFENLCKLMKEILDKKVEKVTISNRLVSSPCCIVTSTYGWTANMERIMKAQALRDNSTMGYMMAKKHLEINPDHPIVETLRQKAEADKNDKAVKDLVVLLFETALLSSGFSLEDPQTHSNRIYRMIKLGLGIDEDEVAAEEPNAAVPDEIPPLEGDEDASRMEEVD

Tests used:
Hsp90β = Hsp90β (Homo sapiens (Human), UniProt P08238); assay: Fluorescence polarization assay (FITC-GDA tracer displacement); format: binding
Hsp90α = Hsp90α (Homo sapiens (Human), UniProt P07900); assay: as above; format: binding

With C=Cc1c(O)c(C(=O)N2Cc3ccccc3C2)cc(C(C)C)c1O [KUNB2, (2,4-Dihydroxy-5-isopropyl-3-vinylphenyl)(isoindolin-2-yl)methanone] the Selectivity (Hsp90β) was no less than 19 and the Kd (Hsp90α) was no less than 100 µM.
In the case of CC(C)c1cc(C(=O)N2Cc3ccccc3C2)c(O)c(C=O)c1O [KUNB1, 2,6-Dihydroxy-3-(isoindoline-2-carbonyl)-5-isopropylbenzaldehyde], the Kd (Hsp90α) is reported as no less than 100 µM.
In the case of CC(C)c1cc(C(=O)N2Cc3ccccc3C2)c(O)c(CO)c1O [KUNB14, (2,4-Dihydroxy-3-(hydroxymethyl)-5-isopropylphenyl)(isoindolin-2-yl)methanone], the Selectivity (Hsp90β) is reported as no less than 25, the “selectivity over the other isoforms” value (Hsp90β) is reported as greater than 25 fold and the Kd (Hsp90α) is reported as no less than 100 µM.
